Shown are actives, neighbours in structure and some others; about 3.7% of the full set was active somewhere.
Nrf2 activator: Nrf2 pathway activation; AREc32 ARE-luciferase reporter (MCF7-derived line), luminescence, 24 h; Potency, µM (doses to about 46.1 µM), without a hit: at the highest dose activation, actives largely listed as activators; 410,000 compounds, 0.31% hits; further: potency means the concentration at half of the fitted maximal effect; % of control where 0% means no effect; nearly all actives have a fitted effect of over 65% in size
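AREc32 cells carrying an ARE-driven firefly luciferase reporter were seeded at 1000 cells/well in OPTI-MEM with 5% FBS, then exposed to compound for 24 hr at 37 deg C. Luminescence was read with Steady-Glo after 30 min at RT.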
ClpP mod: qHTS Assay for Activators of ClpP; Potency, µM (top dose mostly 57.5 µM), for inactives: at the top dose activity change, negative = active; 340,000 compounds, 1.9% hits; purified B. subtilis ClpP, FRET peptide cleavage, 20 min; ATP-dependent Clp protease proteolytic subunit (Bacillus subtilis (strain 168)), P80244; active means well fitted falling curve with a large enough effect; inconclusive means small, poorly fitted or top-dose-only effect; inactive means no such curve, though single readings can be large or run the other way; further: potency means the concentration at half of the fitted maximal effect; the source files actives as falling curves though it sought activators and does not explain the sign; nearly all actives have a fitted effect of over 65% in size
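FRET quenching reversal measured ClpP activation: 10 microg/mL B. subtilis ClpP at pH 8 with the FRET-FV decapeptide, read at 430 nm after 320 nm excitation. The 20-min minus 0-min signal was scaled between DMSO/no-enzyme wells and ADEP (5.8 microM final).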
Nrf2 inh: blocks Nrf2 signaling. AID 504444. Potency, µM (top dose mostly 46 µM), inactives show top-dose activity change, negative = inhibition, actives largely listed as inhibitors. 360,000 compounds, 2.1% hits. A549 ARE-Fluc reporter, luciferase luminescence, 18-24 h; further: potency means the concentration at half of the fitted maximal effect; on the % scale 0 is the no-effect control and ±100 the full control effect; nearly all actives have a fitted effect of over 60% in size
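A549 ARE_Fluc cells, 5000/well, 5% FBS OPTI-MEM; compounds in dose-response, 18-24 h at 37 °C/5% CO2; CellTiter-Fluor viability read (Ex 405/Em 525), then BugLite luciferase luminescence = Nrf2 activity.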
miR-21 FLuc: raises the signal of a miR-21 reporter | Potency, µM (doses to about 38.3 µM), for inactives: top-dose reporter change, positive = more light | HeLa miR-21 FLuc reporter, luciferase, 48 h | AID 2288 | 340,000 tested, under 10 active; active = well fitted rising curve with a large enough effect; inconclusive = small, poorly fitted or top-dose-only effect; inactive = no such curve, though single readings can be large or run the other way;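 also: % of control where 0% means no effect; miR-21 action dims this reporter so a rising signal means less miR-21 action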
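Compounds were titrated across several concentrations (up to approximately 40 uM) and incubated 48 hours with HeLa miR-21-FLuc reporter cells (miR-21 target sequence downstream of FLuc, endogenous miR-21). Readout was firefly luciferase luminescence after lytic detection reagent.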
A549 tox: kills or reduces viability of A549 cells in Nrf2 counter-screen; A549 ARE-Fluc cells, CellTiter-Fluor viability, 18-24 h; Potency, µM (titrated, usually from 46 µM), for the others: top-dose activity change, negative = cytotoxicity, actives largely listed as inhibitors; 390,000 compounds, 0.16% hits; AID 504648; further: potency means the concentration at half of the fitted maximal effect; on the % scale 0 is the no-effect control and ±100 the full control effect
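Cytotoxicity counterscreen: CellTiter-Fluor fluorescence was measured in A549 ARE_Fluc cells after 18-24 h of compound exposure in a concentration series. The subsequent BugLite luminescent read reports ARE-luciferase activity.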
TCR activator: T cell receptor activation; primary human leukocytes, anti-CD3, IL-2 HTRF, 48 h; Potency, µM (titrated, usually from 9.22 µM), without a hit: at the highest dose activation of IL-2 secretion, usual class: activators; 330,000 tested, under 10 active; further: % of control where 0% means no effect
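Primary human leukocytes incubated 48 hr with anti-CD3 beads plus compound, without co-stimulation. Secreted IL-2 measured by HTRF (europium cryptate/d2 anti-IL-2 pair, 320 nm excitation, 665 nm emission).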
The depositor's hits bear a star; ? = inconclusive; · = no result; [ ] = dose if it differs, or a comment. Unless noted, the call rests on the fitted dose curve; in most records, active means well fitted curve in the direction sought with a large enough effect; inconclusive means small, poorly fitted or top-dose-only effect, or another doubt; inactive means no such curve, though single readings can be large; an effect the other way counts as inactive or inconclusive.

The first two compounds (preview)
SMILES	Nrf2 activator	ClpP mod	Nrf2 inh	miR-21 FLuc	A549 tox	TCR activator
Cc1cc(C)cc(OCC(=O)Nc2cccc(-c3nnc(-c4ccco4)o3)c2)c1	1%	32µM*	?	0%	-8%	·
O=C(O)CCC(=O)Nc1ccc(-c2nnc(-c3ccco3)o2)cc1	-1%	5%	13%	-4%	-1%	4%

The whole of this part, repeating the preview:
SMILES	Nrf2 activator	ClpP mod	Nrf2 inh	miR-21 FLuc	A549 tox	TCR activator
Cc1cc(C)cc(OCC(=O)Nc2cccc(-c3nnc(-c4ccco4)o3)c2)c1	1%	32µM*	?	0%	-8%	·
O=C(O)CCC(=O)Nc1ccc(-c2nnc(-c3ccco3)o2)cc1	-1%	5%	13%	-4%	-1%	4%
CCCS(=O)(=O)NC(=O)C1(C)CCCN(C(=O)c2ccc(OC)cc2)C1 (centres undefined)	0%	2%	·	·	·	·
CCOc1ccc(C2CC(c3c(O)n(C4CCCCC4)c(=O)[nH]c3=O)=Nc3ccccc3S2)cc1 (centres undefined)	-1%	-1%	?	-2%	16%	·
Cc1noc(C)c1COC(=O)c1ccc(-c2nc3ccccc3s2)s1	0%	20µM*	-21%	-21%	-11%	-2%
CCNC(=O)COC(=O)c1ccc(-c2nc3ccccc3s2)s1	4%	5%	?	-47%	12%	2%
CCOC(=O)c1c(C)oc2nc(C)nc(N3CCN(c4cc(Cl)ccc4C)CC3)c12	0%	?	-6%	6%	3%	·
COc1cc2cc(CN(C(=O)NC3CCCCC3)C3CCCC3)c(=O)[nH]c2cc1OC	0%	25µM*	19%	-4%	11%	-10%
CCCN(Cc1cc2cc(OC)ccc2[nH]c1=O)C(=O)c1ccncc1	-1%	32µM*	-13%	21%	-18%	-3%
COc1ccc(CN(Cc2cc3cc(C)ccc3[nH]c2=O)C(=O)N(C)C)cc1	-1%	?	-2%	0%	2%	0%
COc1ccc(CN(Cc2cc3cc(OC)c(OC)cc3[nH]c2=O)C(=O)NC2CCCCC2)cc1	-1%	-28%	6%	-2%	0%	0%
CCOc1ccc(C(=O)N(Cc2ccc(OC)cc2)Cc2cc3cc(OC)ccc3[nH]c2=O)cc1	-1%	32µM*	·	-3%	9%	·
COc1ccc(CC(=O)N(Cc2cc3cc(OC)ccc3[nH]c2=O)C(C)C)cc1	1%	32µM*	·	0%	7%	-3%
O=C(Nc1cccc(-c2nn3c(=O)cc(N4CCNCC4)nc3s2)c1)C1CCNCC1	·	·	-1%	·	12%	·
COc1ccc2[nH]c(=O)c(CN(C)C(=O)C3CCCCC3)cc2c1	0%	28µM*	22%	0%	-9%	-2%
OC(c1ccccc1)c1nc2ccccc2n1Cc1c(F)cccc1Cl (centres undefined)	-1%	2%	-3%	14%	-14%	·
COc1cccc(-c2oc3c(c2-c2ccc(Br)nc2)C(O)CCC3)c1 (centres undefined)	5%	?	·	·	·	·
N#Cc1nc(-c2ccc(OCc3ccc(Cl)cc3)cc2)oc1N1CCCCC1	·	4%	11%	·	3%	·
N#Cc1nc(-c2ccc(COc3ccc(Cl)cc3)o2)oc1N1CCCCC1	-1%	28µM*	?	-3%	12%	·
CC1CCN(c2oc(-c3ccc(COc4ccc(Cl)cc4)o3)nc2C#N)CC1	-1%	25µM*	-17%	-2%	4%	·
N#Cc1nc(-c2ccc(COc3ccccc3)o2)oc1N1CCCCC1	-1%	32µM*	-25%	-10%	-1%	·
CC(=O)c1c(C)[nH]c2ccc(OCC(O)CNCCc3ccccc3)cc12 (centres undefined)	·	-3%	·	·	·	·
COc1cccc(-n2c(=O)c3c(C)c(C)sc3n(Cc3ccccc3C#N)c2=O)c1	0%	2%	5%[9.27 µM]	-3%	-6%	·
CC(C)(C)OC(=O)Cc1nnc(-c2cc3ccccc3[nH]2)o1	·	·	?	·	0%	·
Cc1c(/C=C(\C#N)C(=O)Nc2cccc(Cl)c2)c2ccccc2n1Cc1ccccc1	0%	1%	8.2µM*	1%	?	·
COc1ccc(NC(=O)c2cc(-c3ccc(OC)c(OC)c3)on2)cc1OC	0%	22µM*	-15%	-2%	-1%	·
O=C(Nc1cccc(O)c1)c1cc(-c2ccc3c(c2)OCO3)on1	-1%	-2%	15µM*	30%	1%	6%
CC(=O)c1cccc(NC(=O)c2cc(-c3ccc4c(c3)OCCO4)on2)c1	-1%	17%	?	11%	-5%	·
CCN(CC)c1ccc(NC(=O)Cn2nc(C)n3cccc3c2=O)c(C)c1	-1%	0%	-8%	-37%	1%	·
Cc1cccn2c(=O)c3cc(C(=O)NCc4ccccc4)c(=N)n(CCOCCO)c3nc12	-1%	4%	?	-8%	?	·
CSc1ccc(CN(C)Cc2cc(=O)oc3c(C)c(C)ccc23)cc1	0%	-7%	?	0%	9%	0%
C=CCOc1ccc2c(CC)cc(=O)oc2c1C	0%[9.22 µM]	25µM*	-11%	-30%	1%	1%[46.1 µM]
CCOc1ccc(CN(C)Cc2cc(=O)oc3c(C)c(C)ccc23)cc1OC	3%	·	16µM*	·	-16%	2%
CCc1cc(=O)oc2c(C)c(O[C@@H]3O[C@H](CO)[C@@H](O)[C@H](O)[C@H]3O)ccc12	3%	28µM*	-6%	8%	-3%	-9%
Cc1c(C)c2ccc(O[C@@H]3O[C@H](CO)[C@@H](O)[C@H](O)[C@H]3O)c(C)c2oc1=O	2%	0%	13%	-9%	2%	5%
COc1ccc(C2C(=O)N(C3CCC(C)CC3)CC(=O)N2C2CCCCC2)cc1OC (centres undefined)	-1%	1%	·	-2%	-2%	·
COc1ccc(C2Cc3ccccc3C(=O)N2Cc2ccccc2)cc1COc1ccc(NC(C)=O)cc1 (centres undefined)	·	·	-26%	·	-1%	·
COC(=O)c1ccc2nc(-c3ccco3)c(Cc3cccc(F)c3)n2c1	11µM*	4%	·	·	·	·
COC(=O)c1ccc2nc(-c3ccco3)c(Cc3ccc(C)cc3)n2c1	11µM*	5%	·	·	·	·
COC(=O)c1ccc2nc(-c3ccc(C)cc3)c(Cc3ccc(C)cc3)n2c1	11%	-8%	·	·	·	·

Profiles, quoted from the list. Screens in order: Nrf2 activator	ClpP mod	Nrf2 inh	miR-21 FLuc	A549 tox	TCR activator
`CC(=O)c1cccc(NC(=O)c2cc(-c3ccc4c(c3)OCCO4)on2)c1` is entered as -1%	17%	?	11%	-5%	·
`Cc1c(/C=C(\C#N)C(=O)Nc2cccc(Cl)c2)c2ccccc2n1Cc1ccccc1` is entered as 0%	1%	8.2µM*	1%	?	·
`COC(=O)c1ccc2nc(-c3ccco3)c(Cc3cccc(F)c3)n2c1` is entered as 11µM*	4%	·	·	·	·
`COC(=O)c1ccc2nc(-c3ccc(C)cc3)c(Cc3ccc(C)cc3)n2c1` is entered as 11%	-8%	·	·	·	·

(next part)
SMILES	Nrf2 activator	ClpP mod	Nrf2 inh	miR-21 FLuc	A549 tox	TCR activator
COC(=O)c1ccc2nc(-c3ccco3)c(Cc3ccc(OC)cc3C)n2c1	11µM*	-2%	·	·	·	·
COC(=O)c1ccc2nc(-c3ccc(F)cc3)c(Cc3cccc(F)c3)n2c1	9%	-11%	·	·	·	·
COCCNC(=O)C1(C)CCN(C(=O)c2cc(C(C)(C)C)nn2C)C1 (centres undefined)	0%	-3%	·	·	·	·
O=C(OCCO)c1c(-c2ccccc2)oc2c1C(OCCO)CCC2 (centres undefined)	1%	5%	·	·	·	·
CN(Cc1cccs1)c1ncnc2ccc(-c3ccc4cn(C)nc4c3)cc12	·	·	-6%	·	1%	·
Cc1cccc(Oc2ncnc3onc(C)c23)c1	0%	0%	·	-6%	-5%	-6%
